Assay results published in PMC5403950, “Mechanism Underlying the Reversal of Drug Resistance in P-Glycoprotein-Expressing Leukemia Cells by Pinoresinol and the Study of a Derivative” (Frontiers in Pharmacology, 2017).

Chains of the proteins cited; added tags and fusions are not shown.
UniProt P08183, whole entry: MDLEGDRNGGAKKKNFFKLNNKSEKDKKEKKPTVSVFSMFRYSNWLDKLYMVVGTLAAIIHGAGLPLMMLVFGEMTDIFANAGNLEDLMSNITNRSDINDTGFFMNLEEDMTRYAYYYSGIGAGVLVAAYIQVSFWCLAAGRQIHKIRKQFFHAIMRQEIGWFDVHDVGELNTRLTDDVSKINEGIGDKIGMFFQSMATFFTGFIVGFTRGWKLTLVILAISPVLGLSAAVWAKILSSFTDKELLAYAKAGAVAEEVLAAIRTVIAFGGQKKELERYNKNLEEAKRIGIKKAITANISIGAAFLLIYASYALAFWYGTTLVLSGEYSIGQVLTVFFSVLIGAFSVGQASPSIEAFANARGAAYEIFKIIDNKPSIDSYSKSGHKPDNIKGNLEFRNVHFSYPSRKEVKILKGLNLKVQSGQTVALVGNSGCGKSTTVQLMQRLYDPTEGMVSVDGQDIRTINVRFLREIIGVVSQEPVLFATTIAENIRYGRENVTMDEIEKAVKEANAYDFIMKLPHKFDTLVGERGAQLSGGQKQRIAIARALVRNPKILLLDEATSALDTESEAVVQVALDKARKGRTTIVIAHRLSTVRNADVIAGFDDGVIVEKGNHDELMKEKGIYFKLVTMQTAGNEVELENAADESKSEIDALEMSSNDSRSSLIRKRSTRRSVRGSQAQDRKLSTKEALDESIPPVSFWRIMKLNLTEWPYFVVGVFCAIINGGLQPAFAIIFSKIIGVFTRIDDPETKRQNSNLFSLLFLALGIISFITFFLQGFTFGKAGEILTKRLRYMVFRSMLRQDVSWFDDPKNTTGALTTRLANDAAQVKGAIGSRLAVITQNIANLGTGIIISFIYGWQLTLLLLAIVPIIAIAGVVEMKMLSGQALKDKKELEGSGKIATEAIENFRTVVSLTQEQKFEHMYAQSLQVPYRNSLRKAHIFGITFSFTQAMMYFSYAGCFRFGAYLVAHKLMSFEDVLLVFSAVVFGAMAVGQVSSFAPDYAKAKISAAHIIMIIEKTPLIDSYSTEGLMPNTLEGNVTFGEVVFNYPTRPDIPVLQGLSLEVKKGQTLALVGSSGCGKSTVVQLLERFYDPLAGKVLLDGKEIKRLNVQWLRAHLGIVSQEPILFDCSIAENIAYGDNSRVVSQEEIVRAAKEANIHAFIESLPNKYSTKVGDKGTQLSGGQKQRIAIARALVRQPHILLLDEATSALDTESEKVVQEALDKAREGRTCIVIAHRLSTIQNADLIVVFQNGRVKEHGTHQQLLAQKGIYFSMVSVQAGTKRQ

Experiments:
P-gp = P-gp (Homo sapiens, UniProt P08183); settings: read-out: IC50 of antagonism of verapamil-stimulated ATPase activity, verapamil 40 μM as activator, confidence limits in brackets
[1] = test system: peripheral blood mononuclear cells (PBMC); assay: Cytotoxicity on peripheral blood mononuclear cells (MTT); assay type: cell-based, human; settings: PHA 10 μg mL−1, 48 h, confidence limits in brackets
Protocol: The cytotoxicity of 14 and 16 on peripheral blood mononuclear cells (PBMC) was evaluated by MTT assay (Joray et al., [2015]). PBMC were collected from fresh heparinized blood and separated by density gradient centrifugation (Ficoll®) as described by Rennó et al. ([2008]). As the current study required samples from healthy human volunteer donors, ethical approval was provided by the Catholic University of Córdoba Research Ethics Board. Signed informed consents were obtained from donors. […] Absorbance (Abs) and percentage of cytotoxicity were determined as described above and the IC50 values were calculated. The experiment was carried out in two separate stages.

## (±)-pinoresinol [Compound 14]
P-gp
  pIC50: 4.68
P-gp; listed as pinoresinol
  pIC50: 4.68
[1]
  pIC50: 3.67

pIC50: −log10 of the molar value. Where two headings read alike, the source gives them in different places.
